# Several values for one entry are separate records, joined by “and”; a condition that tells them apart may be missing. Identical values can stand only once. Marks after values point to notes of the source that are not given here.
# What was measured:
# [1] = Phase 2a trial: InBody body weight; conditions: for InBody body weight mean change from baseline, LS Mean (SEM) / InBody body weight, Difference of LS Mean and Placebo (SEM) / mean body weight decrease compared with placebo: Day 61; for mean body weight decrease compared with placebo: 450 mg (high dose)
# glycated albumin = assay: Phase 2a trial: percent glycated albumin
# [2] = system: subjects with nonalcoholic fatty liver disease (NAFLD), elevated liver fat (>8%), and elevated body mass index (BMI); assay: Phase 2a trial: liver volume; conditions: for Liver Volume, Difference in LS Mean (Compound 1 minus placebo): Day 61
# [3] = 150 mg, elevated HbA1c subgroup
# [4] = 150 mg, total patient population
# [5] = 300 mg, elevated HbA1c subgroup
# [6] = 300 mg, total patient population
# [7] = 450 mg, elevated HbA1c subgroup
# [8] = 450 mg, total patient population
# [9] = 150 mg, HbA1c 5.7%-9.0% subgroup
# [10] = 300 mg, HbA1c 5.7%-9.0% subgroup
# [11] = 450 mg, HbA1c 5.7%-9.0% subgroup
# [12] = 150 mg, HbA1c 5.7% to 9.0% subgroup
# [13] = 300 mg, HbA1c 5.7% to 9.0% subgroup
# [14] = 450 mg, HbA1c 5.7% to 9.0% subgroup
smiles,measurement,setting,value
Cn1c(COc2ccc([N+](=O)[O-])cc2[N+](=O)[O-])cnc1[N+](=O)[O-],"InBody body weight mean change from baseline, LS Mean (SEM)",[1]; [3],−0.73 (1.453) lbs
same,"InBody body weight, Difference of LS Mean and Placebo (SEM)",[1]; [3],−1.14 (2.066) lbs
same,"InBody body weight mean change from baseline, LS Mean (SEM)",[1]; [4],−1.14 (1.028) lbs
same,"InBody body weight, Difference of LS Mean and Placebo (SEM)",[1]; [4],−0.93 (1.467) lbs
same,"InBody body weight mean change from baseline, LS Mean (SEM)",[1]; [5],−3.10 (1.343) lbs
same,"InBody body weight, Difference of LS Mean and Placebo (SEM)",[1]; [5],−3.52 (1.990) lbs
same,"InBody body weight mean change from baseline, LS Mean (SEM)",[1]; [6],−3.92 (0.981) lbs
same,"InBody body weight, Difference of LS Mean and Placebo (SEM)",[1]; [6],−3.71 (1.435) lbs
same,mean body weight decrease compared with placebo,[1]; overall,6 pounds
same,mean body weight decrease compared with placebo,[1]; subgroup with elevated HbA1c,10 pounds
same,"InBody body weight mean change from baseline, LS Mean (SEM)",[1]; [7],−9.35 (1.341) lbs
same,"InBody body weight, Difference of LS Mean and Placebo (SEM)",[1]; [7],−9.77 (1.985) lbs
same,"InBody body weight mean change from baseline, LS Mean (SEM)",[1]; [8],−6.04 (1.034) lbs
same,"InBody body weight, Difference of LS Mean and Placebo (SEM)",[1]; [8],−5.83 (1.471) lbs
same,Percent weight change at day 61,"[1]; 450 mg, overall population (FAS)",−2.55%
same,Percent weight change at day 61,"[1]; 450 mg, subjects with high HbA1c",−4%
same,"Percent Glycated Albumin, change from baseline to Day 61, Mean","glycated albumin; 150 mg, FAS population",−0.18%
same,"Percent Glycated Albumin, change from baseline to Day 61, Median","glycated albumin; 150 mg, FAS population",0.1%
same,"Percent Glycated Albumin, change from baseline to Day 61, Mean",glycated albumin; [9],−0.78%
same,"Percent Glycated Albumin, change from baseline to Day 61, Median",glycated albumin; [9],0.15%
same,"Percent Glycated Albumin, change from baseline to Day 61, Mean","glycated albumin; 300 mg, FAS population",−0.66%
same,"Percent Glycated Albumin, change from baseline to Day 61, Median","glycated albumin; 300 mg, FAS population",−0.55%
same,"Percent Glycated Albumin, change from baseline to Day 61, Mean",glycated albumin; [10],−0.36%
same,"Percent Glycated Albumin, change from baseline to Day 61, Median",glycated albumin; [10],−0.2%
same,"Percent Glycated Albumin, change from baseline to Day 61, Mean","glycated albumin; 450 mg, FAS population",−1.49%
same,"Percent Glycated Albumin, change from baseline to Day 61, Median","glycated albumin; 450 mg, FAS population",−1.25%
same,"Percent Glycated Albumin, change from baseline to Day 61, Mean",glycated albumin; [11],−1.73%
same,"Percent Glycated Albumin, change from baseline to Day 61, Median",glycated albumin; [11],−1.7%
same,"Liver Volume, Difference in LS Mean (Compound 1 minus placebo)",[2]; [12],-0.15 L
same,"Liver Volume, Difference in LS Mean (Compound 1 minus placebo)","[2]; 150 mg, all subjects",-0.08 L
same,"Liver Volume at Day 61, Mean",[2]; [12],2.26 L
same,"Liver Volume at Day 61, Median",[2]; [12],2.34 L
same,"Liver Volume, LS mean change from baseline at Day 61",[2]; [12],-0.16 L
same,"Liver Volume at Day 61, Mean","[2]; 150 mg, all subjects",2.18 L
same,"Liver Volume at Day 61, Median","[2]; 150 mg, all subjects",2.13 L
same,"Liver Volume, LS mean change from baseline at Day 61","[2]; 150 mg, all subjects / overall population",-0.08 L
same,"Liver Volume, Difference in LS Mean (Compound 1 minus placebo)",[2]; [13],-0.17 L
same,"Liver Volume, Difference in LS Mean (Compound 1 minus placebo)","[2]; 300 mg, all subjects",-0.14 L
same,"Liver Volume at Day 61, Mean",[2]; [13],2.22 L
same,"Liver Volume at Day 61, Median",[2]; [13],2.01 L
same,"Liver Volume, LS mean change from baseline at Day 61",[2]; [13],−0.17^a L and −0.17 L
same,"Liver Volume at Day 61, Mean","[2]; 300 mg, all subjects",1.96 L
same,"Liver Volume at Day 61, Median","[2]; 300 mg, all subjects",1.87 L
same,"Liver Volume, LS mean change from baseline at Day 61","[2]; 300 mg, all subjects / overall population",-0.14 L
same,"Liver Volume, Difference in LS Mean (Compound 1 minus placebo)",[2]; [14],-0.14 L
same,"Liver Volume, Difference in LS Mean (Compound 1 minus placebo)","[2]; 450 mg, all subjects",-0.14 L
same,"Liver Volume at Day 61, Mean",[2]; [14],2.17 L
same,"Liver Volume at Day 61, Median",[2]; [14],2.27 L
same,"Liver Volume, LS mean change from baseline at Day 61",[2]; [14],-0.15 L
same,"Liver Volume at Day 61, Mean","[2]; 450 mg, all subjects",2.07 L
same,"Liver Volume at Day 61, Median","[2]; 450 mg, all subjects",2.01 L
same,"Liver Volume, LS mean change from baseline at Day 61","[2]; 450 mg, all subjects / overall population",-0.14 L

# Source: patent US20250134865A1, “METHODS OF WEIGHT LOSS IN A SUBJECT WITH ELEVATED HBA1C” (published 2025)
